{"sequences": {"note": "Sequences of proteins named here, by UniProt entry; tags and fusion partners are left off.", "UniProt P32245, whole entry": "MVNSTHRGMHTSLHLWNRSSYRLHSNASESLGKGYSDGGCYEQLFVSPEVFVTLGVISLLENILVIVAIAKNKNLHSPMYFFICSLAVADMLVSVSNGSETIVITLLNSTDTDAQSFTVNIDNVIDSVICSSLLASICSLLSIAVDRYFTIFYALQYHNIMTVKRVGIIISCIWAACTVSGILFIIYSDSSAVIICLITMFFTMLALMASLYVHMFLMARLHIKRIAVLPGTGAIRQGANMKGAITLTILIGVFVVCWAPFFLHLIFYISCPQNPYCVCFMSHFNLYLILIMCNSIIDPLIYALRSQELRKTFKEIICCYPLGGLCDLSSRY"}, "source": "paper PMC7951137", "about": "(ACS chemical neuroscience, 2021)", "key": {"[1]": {"molecular_target": "T1, human melanocortin-4 receptor (hMC4R), wild type, N-terminal FLAG-tagged (human, UniProt P32245 1-332)", "assay": "radioligand binding"}, "[2]": {"molecular_target": "T1, human melanocortin-4 receptor (hMC4R), …", "assay": "radioligand binding", "remark": "listed apart in the source"}}, "note": "Like-named read-outs stand apart in the source and are kept apart here."}
{"binder": "PRFFHAFP (DPro at position 8; cyclized head-to-tail through the DPro-Pro motif)", "note": "[MDE3–119-13c]", "values": [{"measurement": "IC50", "setting": "[1]", "value": 120, "unit": "nM"}, {"measurement": "IC50", "setting": "[2]", "value": 44, "unit": "nM"}]}
